Results reported in patent US20260382623A1, “NOVEL COMPOUND FOR INHIBITING PROTEIN KINASES AND PHARMACEUTICAL COMPOSITION COMPRISING SAME” (published 2026).

By UniProt entry, the sequences of proteins in these tests, tags left out. Residues count along the entry.
UniProt P42681, whole entry: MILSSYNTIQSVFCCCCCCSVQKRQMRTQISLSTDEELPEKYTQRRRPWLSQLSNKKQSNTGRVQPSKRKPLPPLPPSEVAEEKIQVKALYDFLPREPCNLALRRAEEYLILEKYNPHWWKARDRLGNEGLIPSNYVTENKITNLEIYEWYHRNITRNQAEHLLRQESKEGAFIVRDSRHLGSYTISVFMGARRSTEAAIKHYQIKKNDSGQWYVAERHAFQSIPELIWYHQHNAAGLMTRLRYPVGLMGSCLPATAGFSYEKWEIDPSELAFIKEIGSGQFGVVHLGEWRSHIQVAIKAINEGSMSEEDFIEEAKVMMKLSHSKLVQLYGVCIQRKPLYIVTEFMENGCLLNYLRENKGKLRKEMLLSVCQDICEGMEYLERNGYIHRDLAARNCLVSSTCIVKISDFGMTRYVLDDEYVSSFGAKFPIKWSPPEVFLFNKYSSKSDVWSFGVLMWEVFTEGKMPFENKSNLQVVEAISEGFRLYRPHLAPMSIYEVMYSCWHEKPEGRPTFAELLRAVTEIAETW
UniProt P09619, 33-1106 limits assumed: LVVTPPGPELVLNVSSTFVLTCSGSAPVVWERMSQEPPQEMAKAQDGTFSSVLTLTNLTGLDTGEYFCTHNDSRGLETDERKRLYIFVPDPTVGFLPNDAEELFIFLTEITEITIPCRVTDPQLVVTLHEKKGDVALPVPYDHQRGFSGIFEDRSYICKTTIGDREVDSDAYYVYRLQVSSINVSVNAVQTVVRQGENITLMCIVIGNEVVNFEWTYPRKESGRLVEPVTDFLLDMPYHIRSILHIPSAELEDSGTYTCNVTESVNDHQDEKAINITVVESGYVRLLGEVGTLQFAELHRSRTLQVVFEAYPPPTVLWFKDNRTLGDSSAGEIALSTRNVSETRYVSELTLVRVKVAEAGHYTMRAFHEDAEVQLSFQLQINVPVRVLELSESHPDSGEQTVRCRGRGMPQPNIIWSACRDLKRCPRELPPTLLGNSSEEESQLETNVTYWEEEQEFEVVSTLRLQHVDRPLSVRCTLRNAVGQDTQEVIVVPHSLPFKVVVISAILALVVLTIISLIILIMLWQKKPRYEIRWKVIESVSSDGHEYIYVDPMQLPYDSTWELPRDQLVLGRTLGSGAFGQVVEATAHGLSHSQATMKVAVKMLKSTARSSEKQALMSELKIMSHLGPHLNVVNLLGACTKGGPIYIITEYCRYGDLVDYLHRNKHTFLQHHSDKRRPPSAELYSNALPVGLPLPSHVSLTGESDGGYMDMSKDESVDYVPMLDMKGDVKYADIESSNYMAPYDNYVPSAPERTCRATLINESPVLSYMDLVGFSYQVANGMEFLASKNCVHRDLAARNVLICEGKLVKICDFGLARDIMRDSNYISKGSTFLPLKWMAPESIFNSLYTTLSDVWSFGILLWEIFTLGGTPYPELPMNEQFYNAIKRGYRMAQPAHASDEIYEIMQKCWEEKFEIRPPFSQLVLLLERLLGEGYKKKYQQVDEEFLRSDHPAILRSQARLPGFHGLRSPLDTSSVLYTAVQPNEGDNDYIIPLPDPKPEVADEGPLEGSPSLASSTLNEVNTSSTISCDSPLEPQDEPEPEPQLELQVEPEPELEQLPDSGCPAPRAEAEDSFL
UniProt Q9H3Y6, whole entry: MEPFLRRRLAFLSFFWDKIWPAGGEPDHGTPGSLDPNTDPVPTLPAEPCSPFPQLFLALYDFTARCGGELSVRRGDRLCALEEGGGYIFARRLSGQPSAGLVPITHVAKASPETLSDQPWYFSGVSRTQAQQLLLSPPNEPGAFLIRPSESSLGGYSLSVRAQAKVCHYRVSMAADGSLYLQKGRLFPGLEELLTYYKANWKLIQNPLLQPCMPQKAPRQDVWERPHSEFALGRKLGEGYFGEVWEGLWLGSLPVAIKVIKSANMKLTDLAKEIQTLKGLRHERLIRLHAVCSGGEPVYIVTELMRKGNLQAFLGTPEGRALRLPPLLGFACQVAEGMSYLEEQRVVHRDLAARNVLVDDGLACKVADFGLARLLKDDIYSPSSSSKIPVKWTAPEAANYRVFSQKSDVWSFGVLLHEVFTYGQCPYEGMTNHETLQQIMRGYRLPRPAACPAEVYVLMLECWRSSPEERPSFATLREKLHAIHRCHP
UniProt P42680, whole entry: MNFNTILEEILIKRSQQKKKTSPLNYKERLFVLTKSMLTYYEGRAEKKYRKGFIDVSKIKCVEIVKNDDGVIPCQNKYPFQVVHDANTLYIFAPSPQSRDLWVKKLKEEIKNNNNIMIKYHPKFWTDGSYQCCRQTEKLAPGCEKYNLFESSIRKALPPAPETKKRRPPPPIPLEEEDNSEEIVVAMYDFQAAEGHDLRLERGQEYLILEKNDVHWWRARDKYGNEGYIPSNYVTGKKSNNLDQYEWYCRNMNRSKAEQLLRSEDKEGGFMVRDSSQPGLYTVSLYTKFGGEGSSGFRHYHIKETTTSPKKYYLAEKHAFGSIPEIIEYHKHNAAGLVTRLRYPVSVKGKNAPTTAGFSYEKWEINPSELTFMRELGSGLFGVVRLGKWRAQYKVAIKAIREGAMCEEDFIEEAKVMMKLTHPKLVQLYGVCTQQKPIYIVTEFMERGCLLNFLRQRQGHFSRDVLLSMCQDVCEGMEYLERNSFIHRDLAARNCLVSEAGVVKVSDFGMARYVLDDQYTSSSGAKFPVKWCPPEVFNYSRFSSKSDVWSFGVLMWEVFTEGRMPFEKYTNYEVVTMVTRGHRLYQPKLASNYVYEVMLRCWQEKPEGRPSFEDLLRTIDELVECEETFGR
UniProt P07332, whole entry: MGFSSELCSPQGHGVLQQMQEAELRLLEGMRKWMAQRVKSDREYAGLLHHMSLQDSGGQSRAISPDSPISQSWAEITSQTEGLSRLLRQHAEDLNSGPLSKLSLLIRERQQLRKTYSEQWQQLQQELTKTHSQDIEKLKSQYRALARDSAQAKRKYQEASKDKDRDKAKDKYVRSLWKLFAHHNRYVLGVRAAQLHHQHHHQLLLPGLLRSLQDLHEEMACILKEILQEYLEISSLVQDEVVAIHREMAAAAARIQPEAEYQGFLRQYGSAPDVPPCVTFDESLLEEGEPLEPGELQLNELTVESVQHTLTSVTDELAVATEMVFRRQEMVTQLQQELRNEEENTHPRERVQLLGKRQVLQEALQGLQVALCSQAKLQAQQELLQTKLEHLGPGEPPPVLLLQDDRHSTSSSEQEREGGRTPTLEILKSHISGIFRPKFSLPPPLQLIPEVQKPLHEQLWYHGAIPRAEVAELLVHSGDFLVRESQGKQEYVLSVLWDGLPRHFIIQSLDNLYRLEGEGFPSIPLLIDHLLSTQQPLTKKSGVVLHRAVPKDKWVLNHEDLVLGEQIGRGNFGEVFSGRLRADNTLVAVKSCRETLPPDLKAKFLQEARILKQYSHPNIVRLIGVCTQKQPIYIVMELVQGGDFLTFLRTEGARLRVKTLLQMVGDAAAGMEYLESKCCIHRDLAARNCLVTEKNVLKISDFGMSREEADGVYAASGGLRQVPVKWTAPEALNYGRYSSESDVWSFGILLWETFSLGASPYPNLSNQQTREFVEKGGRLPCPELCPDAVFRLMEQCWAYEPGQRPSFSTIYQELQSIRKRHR
UniProt P15056, whole entry: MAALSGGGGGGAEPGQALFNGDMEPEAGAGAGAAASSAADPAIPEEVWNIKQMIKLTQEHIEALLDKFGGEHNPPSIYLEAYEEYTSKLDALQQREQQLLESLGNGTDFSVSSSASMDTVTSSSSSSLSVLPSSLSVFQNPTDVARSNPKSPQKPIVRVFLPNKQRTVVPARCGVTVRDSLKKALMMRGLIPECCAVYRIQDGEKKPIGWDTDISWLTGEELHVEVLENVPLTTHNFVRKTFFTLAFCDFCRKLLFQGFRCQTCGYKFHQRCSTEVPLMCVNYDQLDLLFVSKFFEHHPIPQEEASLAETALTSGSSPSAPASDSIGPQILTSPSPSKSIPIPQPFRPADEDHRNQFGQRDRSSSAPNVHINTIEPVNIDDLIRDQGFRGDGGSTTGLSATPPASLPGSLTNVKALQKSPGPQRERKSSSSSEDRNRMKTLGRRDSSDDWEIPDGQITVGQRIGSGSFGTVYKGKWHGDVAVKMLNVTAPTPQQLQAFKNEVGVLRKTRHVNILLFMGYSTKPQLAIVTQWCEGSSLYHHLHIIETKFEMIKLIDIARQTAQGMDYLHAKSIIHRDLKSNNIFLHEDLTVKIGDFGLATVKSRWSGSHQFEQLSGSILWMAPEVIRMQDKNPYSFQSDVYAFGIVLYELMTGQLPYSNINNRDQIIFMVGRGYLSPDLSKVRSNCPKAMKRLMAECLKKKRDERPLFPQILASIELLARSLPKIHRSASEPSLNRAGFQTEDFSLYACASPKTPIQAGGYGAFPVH
UniProt P08631, whole entry: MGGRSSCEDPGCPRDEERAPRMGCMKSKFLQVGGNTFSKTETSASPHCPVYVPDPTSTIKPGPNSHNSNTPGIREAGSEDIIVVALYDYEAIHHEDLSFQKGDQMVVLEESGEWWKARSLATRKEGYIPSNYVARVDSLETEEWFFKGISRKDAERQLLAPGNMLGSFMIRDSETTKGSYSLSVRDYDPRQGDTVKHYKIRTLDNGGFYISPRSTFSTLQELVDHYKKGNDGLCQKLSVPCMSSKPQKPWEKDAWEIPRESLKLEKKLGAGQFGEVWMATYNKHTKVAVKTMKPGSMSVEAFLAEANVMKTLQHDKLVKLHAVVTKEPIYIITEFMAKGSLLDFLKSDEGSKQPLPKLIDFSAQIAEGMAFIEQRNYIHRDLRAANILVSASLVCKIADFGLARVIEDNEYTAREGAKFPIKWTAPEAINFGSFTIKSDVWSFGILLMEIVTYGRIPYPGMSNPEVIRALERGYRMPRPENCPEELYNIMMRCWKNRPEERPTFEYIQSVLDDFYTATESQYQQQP
UniProt P29320, 21-983 limits assumed: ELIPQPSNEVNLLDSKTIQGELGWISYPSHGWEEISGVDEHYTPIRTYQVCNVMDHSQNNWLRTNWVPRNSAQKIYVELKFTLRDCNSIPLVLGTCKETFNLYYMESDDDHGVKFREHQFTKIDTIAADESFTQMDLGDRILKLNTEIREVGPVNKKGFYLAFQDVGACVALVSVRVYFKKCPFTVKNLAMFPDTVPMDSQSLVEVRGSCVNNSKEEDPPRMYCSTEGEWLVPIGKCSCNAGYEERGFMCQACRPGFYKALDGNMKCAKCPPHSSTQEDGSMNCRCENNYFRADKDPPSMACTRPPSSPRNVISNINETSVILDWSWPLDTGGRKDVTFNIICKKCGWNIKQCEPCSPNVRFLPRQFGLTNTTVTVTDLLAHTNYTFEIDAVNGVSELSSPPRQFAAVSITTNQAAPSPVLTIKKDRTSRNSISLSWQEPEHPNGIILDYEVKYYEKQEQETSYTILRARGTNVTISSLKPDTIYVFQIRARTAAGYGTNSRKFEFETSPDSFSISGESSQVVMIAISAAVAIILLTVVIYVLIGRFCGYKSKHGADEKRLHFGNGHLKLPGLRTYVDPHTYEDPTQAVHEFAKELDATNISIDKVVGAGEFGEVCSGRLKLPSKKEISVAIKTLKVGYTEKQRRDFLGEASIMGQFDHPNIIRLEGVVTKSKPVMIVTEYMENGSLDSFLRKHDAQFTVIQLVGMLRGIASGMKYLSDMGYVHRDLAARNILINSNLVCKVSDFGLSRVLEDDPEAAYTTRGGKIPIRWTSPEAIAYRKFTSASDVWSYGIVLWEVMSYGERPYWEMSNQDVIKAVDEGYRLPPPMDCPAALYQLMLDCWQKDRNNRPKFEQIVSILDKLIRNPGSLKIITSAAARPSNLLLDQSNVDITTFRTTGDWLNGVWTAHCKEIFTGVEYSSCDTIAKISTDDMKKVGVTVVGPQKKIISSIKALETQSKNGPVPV
UniProt Q13163, whole entry: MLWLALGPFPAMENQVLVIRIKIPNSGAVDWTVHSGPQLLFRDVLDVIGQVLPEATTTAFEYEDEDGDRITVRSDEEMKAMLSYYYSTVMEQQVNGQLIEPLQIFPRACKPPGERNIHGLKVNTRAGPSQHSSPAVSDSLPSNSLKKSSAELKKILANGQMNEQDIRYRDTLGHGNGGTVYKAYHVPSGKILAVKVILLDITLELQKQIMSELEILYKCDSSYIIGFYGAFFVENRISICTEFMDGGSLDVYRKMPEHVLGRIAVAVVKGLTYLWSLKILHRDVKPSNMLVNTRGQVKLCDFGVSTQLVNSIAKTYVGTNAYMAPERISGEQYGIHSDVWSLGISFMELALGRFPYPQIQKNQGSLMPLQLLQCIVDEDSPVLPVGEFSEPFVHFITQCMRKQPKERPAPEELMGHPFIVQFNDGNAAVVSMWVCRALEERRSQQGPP

Tests used:
Assay in all cases: Full kinase panel inhibition by Example compounds 8 and 51 at 1 μM (Tables 11 to 14; kinase named in each table line)
full kinase panel [1] = target: full kinase panel (Homo sapiens, UniProt P07948); settings: LYN
full kinase panel [2] = target: full kinase panel (Homo sapiens, UniProt O15146); settings: MUSK
full kinase panel [3] = target: full kinase panel (Homo sapiens, UniProt Q56UN5); settings: YSK4/MAP3K19
full kinase panel [4] = target: full kinase panel (Homo sapiens, UniProt P42681); settings: TXK
full kinase panel [5] = target: full kinase panel (Homo sapiens, UniProt Q16539); settings: P38A/MAPK14
full kinase panel [6] = target: full kinase panel (Homo sapiens, UniProt P12931); settings: C-SRC
full kinase panel [7] = target: full kinase panel (Homo sapiens, UniProt P16234); settings: PDGFRA
full kinase panel [8] = target: full kinase panel (Homo sapiens, UniProt P51813); settings: BMX/ETK
full kinase panel [9] = target: full kinase panel (Homo sapiens, UniProt Q16288); settings: TRKC
full kinase panel [10] = target: full kinase panel (Homo sapiens, UniProt P09619); settings: PDGFRB
full kinase panel [11] = target: full kinase panel (Homo sapiens, UniProt P10398); settings: ARAF
full kinase panel [12] = target: full kinase panel (Homo sapiens, UniProt Q99759); settings: MEKK3
full kinase panel [13] = target: full kinase panel (Homo sapiens, UniProt P41240); settings: CSK
full kinase panel [14] = target: full kinase panel (Homo sapiens, UniProt Q08345); settings: DDR1
full kinase panel [15] = target: full kinase panel (Homo sapiens, UniProt Q8IVH8); settings: GLK/MAP4K3
full kinase panel [16] = target: full kinase panel (Homo sapiens, UniProt P16591); settings: FER
full kinase panel [17] = target: full kinase panel (Homo sapiens, UniProt Q9NYL2); settings: ZAK/MLTK
full kinase panel [18] = target: full kinase panel (Homo sapiens, UniProt Q9UL54); settings: TAOK2/TAO1
full kinase panel [19] = target: full kinase panel (Homo sapiens, UniProt Q9H3Y6); settings: SRMS
full kinase panel [20] = target: full kinase panel (Homo sapiens, UniProt O94804); settings: LOK/STK10
full kinase panel [21] = target: full kinase panel (Homo sapiens, UniProt P42680); settings: TEC
full kinase panel [22] = target: full kinase panel (Homo sapiens, UniProt Q92918); settings: HPK1/MAP4K1
full kinase panel [23] = target: full kinase panel (Homo sapiens, UniProt P00533); settings: EGFR
full kinase panel [24] = target: full kinase panel (Homo sapiens, UniProt Q12851); settings: GCK/MAP4K2
full kinase panel [25] = target: full kinase panel (Homo sapiens, UniProt Q9NRM7); settings: LATS2
full kinase panel [26] = target: full kinase panel (Homo sapiens, UniProt Q9NY57); settings: STK32B/YANK2
full kinase panel [27] = target: full kinase panel (Homo sapiens, UniProt P42684); settings: ABL2/ARG
full kinase panel [28] = target: full kinase panel (Homo sapiens, UniProt P07332); settings: FES/FPS
full kinase panel [29] = target: full kinase panel (Homo sapiens, UniProt P15056); settings: BRAF
full kinase panel [30] = target: full kinase panel (Homo sapiens, UniProt P08631); settings: HCK
full kinase panel [31] = target: full kinase panel (Homo sapiens, UniProt Q9H2G2); settings: SLK/STK2
full kinase panel [32] = target: full kinase panel (Homo sapiens, UniProt P06239); settings: LCK
full kinase panel [33] = target: full kinase panel (Homo sapiens, UniProt P29320); settings: EPHA3
full kinase panel [34] = target: full kinase panel (Homo sapiens, UniProt P21802); settings: FGFR2
full kinase panel [35] = target: full kinase panel (Homo sapiens, UniProt P54756); settings: EPHA5
full kinase panel [36] = target: full kinase panel (Homo sapiens, UniProt Q13163); settings: MEK5
full kinase panel [37] = target: full kinase panel (Homo sapiens, UniProt P52333); settings: JAK3
full kinase panel [38] = target: full kinase panel (Homo sapiens, UniProt Q9UKE5); settings: TNIK
full kinase panel [39] = target: full kinase panel (Homo sapiens, UniProt P57059); settings: SIK1
full kinase panel [40] = target: full kinase panel (Homo sapiens, UniProt Q96S53); settings: TESK2

In the case of `Cc1ccc(Nc2ncc3c(n2)C2(CC2)C(=O)N(c2cc(NC(=O)c4cccc(C(F)(F)F)c4)ccc2C)C3)cn1`, the “kinase inhibition (residual enzyme activity)” value (full kinase panel [1]) is reported as “◯ (residual enzyme activity values were 40% or less, i.e., inhibited by 60% or more)”, the “kinase inhibition (residual enzyme activity)” value (full kinase panel [2]) is reported as “◯ (residual enzyme activity values were 40% or less, i.e., inhibited by 60% or more)” and the “kinase inhibition (residual enzyme activity)” value (full kinase panel [3]) is reported as “◯ (residual enzyme activity values were 40% or less, i.e., inhibited by 60% or more)”. For the same compound, the “kinase inhibition (residual enzyme activity)” value (full kinase panel [4]) was “◯ (residual enzyme activity values were 40% or less, i.e., inhibited by 60% or more)”, the “kinase inhibition (residual enzyme activity)” value (full kinase panel [5]) was “◯ (residual enzyme activity values were 40% or less, i.e., inhibited by 60% or more)” and the “kinase inhibition (residual enzyme activity)” value (full kinase panel [6]) was “◯ (residual enzyme activity values were 40% or less, i.e., inhibited by 60% or more)”. For the same compound, the “kinase inhibition (residual enzyme activity)” value (full kinase panel [7]) was “◯ (residual enzyme activity values were 40% or less, i.e., inhibited by 60% or more)”, the “kinase inhibition (residual enzyme activity)” value (full kinase panel [8]) was “◯ (residual enzyme activity values were 40% or less, i.e., inhibited by 60% or more)” and the “kinase inhibition (residual enzyme activity)” value (full kinase panel [9]) was “◯ (residual enzyme activity values were 40% or less, i.e., inhibited by 60% or more)”. The “kinase inhibition (residual enzyme activity)” value (full kinase panel [10]) was “◯ (residual enzyme activity values were 40% or less, i.e., inhibited by 60% or more)”, the “kinase inhibition (residual enzyme activity)” value (full kinase panel [11]) was “◯ (residual enzyme activity values were 40% or less, i.e., inhibited by 60% or more)” and the “kinase inhibition (residual enzyme activity)” value (full kinase panel [12]) was “◯ (residual enzyme activity values were 40% or less, i.e., inhibited by 60% or more)”. For the same compound, the “kinase inhibition (residual enzyme activity)” value (full kinase panel [13]) was “◯ (residual enzyme activity values were 40% or less, i.e., inhibited by 60% or more)”, the “kinase inhibition (residual enzyme activity)” value (full kinase panel [14]) was “◯ (residual enzyme activity values were 40% or less, i.e., inhibited by 60% or more)” and the “kinase inhibition (residual enzyme activity)” value (full kinase panel [15]) was “◯ (residual enzyme activity values were 40% or less, i.e., inhibited by 60% or more)”. The “kinase inhibition (residual enzyme activity)” value (full kinase panel [16]) was “◯ (residual enzyme activity values were 40% or less, i.e., inhibited by 60% or more)”, the “kinase inhibition (residual enzyme activity)” value (full kinase panel [17]) was “◯ (residual enzyme activity values were 40% or less, i.e., inhibited by 60% or more)” and the “kinase inhibition (residual enzyme activity)” value (full kinase panel [18]) was “◯ (residual enzyme activity values were 40% or less, i.e., inhibited by 60% or more)”. The “kinase inhibition (residual enzyme activity)” value (full kinase panel [19]) was “◯ (residual enzyme activity values were 40% or less, i.e., inhibited by 60% or more)”, the “kinase inhibition (residual enzyme activity)” value (full kinase panel [20]) was “◯ (residual enzyme activity values were 40% or less, i.e., inhibited by 60% or more)” and the “kinase inhibition (residual enzyme activity)” value (full kinase panel [21]) was “◯ (residual enzyme activity values were 40% or less, i.e., inhibited by 60% or more)”. The “kinase inhibition (residual enzyme activity)” value (full kinase panel [22]) was “◯ (residual enzyme activity values were 40% or less, i.e., inhibited by 60% or more)”, the “kinase inhibition (residual enzyme activity)” value (full kinase panel [23]) was “◯ (residual enzyme activity values were 40% or less, i.e., inhibited by 60% or more)” and the “kinase inhibition (residual enzyme activity)” value (full kinase panel [24]) was “◯ (residual enzyme activity values were 40% or less, i.e., inhibited by 60% or more)”. For the same compound, the “kinase inhibition (residual enzyme activity)” value (full kinase panel [25]) was “◯ (residual enzyme activity values were 40% or less, i.e., inhibited by 60% or more)”, the “kinase inhibition (residual enzyme activity)” value (full kinase panel [26]) was “◯ (residual enzyme activity values were 40% or less, i.e., inhibited by 60% or more)” and the “kinase inhibition (residual enzyme activity)” value (full kinase panel [27]) was “◯ (residual enzyme activity values were 40% or less, i.e., inhibited by 60% or more)”. The “kinase inhibition (residual enzyme activity)” value (full kinase panel [28]) was “◯ (residual enzyme activity values were 40% or less, i.e., inhibited by 60% or more)”, the “kinase inhibition (residual enzyme activity)” value (full kinase panel [29]) was “◯ (residual enzyme activity values were 40% or less, i.e., inhibited by 60% or more)” and the “kinase inhibition (residual enzyme activity)” value (full kinase panel [30]) was “◯ (residual enzyme activity values were 40% or less, i.e., inhibited by 60% or more)”. The “kinase inhibition (residual enzyme activity)” value (full kinase panel [31]) was “◯ (residual enzyme activity values were 40% or less, i.e., inhibited by 60% or more)”, the “kinase inhibition (residual enzyme activity)” value (full kinase panel [32]) was “◯ (residual enzyme activity values were 40% or less, i.e., inhibited by 60% or more)” and the “kinase inhibition (residual enzyme activity)” value (full kinase panel [33]) was “◯ (residual enzyme activity values were 40% or less, i.e., inhibited by 60% or more)”. The “kinase inhibition (residual enzyme activity)” value (full kinase panel [34]) was “◯ (residual enzyme activity values were 40% or less, i.e., inhibited by 60% or more)”, the “kinase inhibition (residual enzyme activity)” value (full kinase panel [35]) was “◯ (residual enzyme activity values were 40% or less, i.e., inhibited by 60% or more)” and the “kinase inhibition (residual enzyme activity)” value (full kinase panel [36]) was “◯ (residual enzyme activity values were 40% or less, i.e., inhibited by 60% or more)”. For the same compound, the “kinase inhibition (residual enzyme activity)” value (full kinase panel [37]) was “◯ (residual enzyme activity values were 40% or less, i.e., inhibited by 60% or more)”, the “kinase inhibition (residual enzyme activity)” value (full kinase panel [38]) was “◯ (residual enzyme activity values were 40% or less, i.e., inhibited by 60% or more)” and the “kinase inhibition (residual enzyme activity)” value (full kinase panel [39]) was “◯ (residual enzyme activity values were 40% or less, i.e., inhibited by 60% or more)”. For the same compound, the “kinase inhibition (residual enzyme activity)” value (full kinase panel [40]) was “◯ (residual enzyme activity values were 40% or less, i.e., inhibited by 60% or more)”.
